Results as given in patent US11823799B2, “Method for identifying personalized therapeutic strategies for patients affected with a cancer” (UNIVERSITE DE STRASBOURG, priority 2015, dated 2023).

Key:
CC model (CR-IC-028M) [1] = experiment: Earlier Cetuximab test in patient-derived colorectal tumor xenografts; assay type: in vivo, CB17 SCID mice; settings: Cetuximab 12.5 mg/kg i.p 1 time per week, 3 weeks
Description: The predictive value of the calculated score was tested in a colorectal cancer tumor animal model. Small tumor fragments (CR-IC-004M-P4/CR-IC-006M-P3/CR-IC-007M-P4/CR-IC-009M-P3/CR-IC-0013M-P3/CR-IC-0021M-P4/CR-IC-0025M-P3/CR-IC-0028M-P3/CR-IGR-002M-P4/CR-IGR-0023M-P3/CR-IGR-048M-P3/CR-IGR-052C-P4/CR-LRB-008M-P4/CR-LRB-009C-P4/CR-LRB-019C-P5) were subcutaneously implanted in the right flank of CB17 SCID mice. The treatment started when tumors reached a mean volume of 200-300 mm^3. Animals were randomized according to their individual tumor volume into 2 groups using Vivo Manager® software (Biosystemes, Couternon, France). A statistical test (analysis of variance) was performed to test for homogeneity between groups. The first group was treated with Cetuximab 12.5 mg/kg (n=10) i.p 1 times per week during 3 weeks, the second with the vehicle of Cetuximab 0.9% NaCl. The tumor volume was calculated by [(a×b^2) 2], where a is the largest tumor diameter and b the perpendicular tumor diameter measured with a caliper.

CC model (CR-IC-028M) [2] = experiment: Colorectal tumor PDX model CR-IC-028M, subcutaneous tumor growth in mice; assay type: in vivo, SWISS Nude mice; settings: Cetuximab 12.5 mg/kg i.p, Trastuzumab 1 mg/kg i.p, Cediranib 6 mg/kg p.o; vs vehicle
Text: Small tumor fragments were subcutaneously implanted in the right flank of 9 CB17 SCID mice. When tumor size reached 500-700 mm^3, tumors were surgically excised and small tumor fragments were subcutaneously implanted in the right flank of 52 recipient SWISS Nude mice.
The treatment started when tumors reached a mean volume of 200-300 mm^3. 40 animals out were randomized according to their individual tumor volume into 4 groups each of 10 animals using Vivo Manager® software (Biosystemes, Couternon, France). A statistical test (analysis of variance) was performed to test for homogeneity between groups.
The first group of the model CR-IC-028M was treated with Cetuximab 12.5 mg/kg (n=10) i.p 1 times per week during 3 weeks, the second with Trastuzumab 1 mg/kg (n=10) i.p twice weekly during 3 weeks, a third group was treated with Cediranib 6 mg/kg (n=10) p.o during 10 days interrupted by 2 days of wash-out after 5 days. The last one, the control group received a mix of the vehicle of Cetuximab and Cediranib. The administration volume for the two models was 10 mL/kg (200 μL/mouse of 20 g) adjusted to the most recent individual body weight of mice.
The tumor volume was calculated by [(a×b^2) 2], where a is the largest tumor diameter and b the perpendicular tumor diameter measured with a caliper every 3 days. […]

Substance | response of the model in previous results (CC model (CR-IC-028M) [1]) | effect on tumor growth / tumor development (CC model (CR-IC-028M) [2])
Cetuximab | resistant | tumor growth was not affected
Trastuzumab |  | not efficient in blocking tumor development
